Test: soluble on expression in E. coli; label from the status in PepcDB or PDB records

Sequence	soluble on expression in E. coli
ASSRWFFTREQLENTPSRRCGVEADKELSCRQQAANLIQEMGQRLNVSQLTINTAIVYMHRFYMHHSFTKFNKNIISSTALFLAAKVEEQARKLEHVIKVAHACLHPLEPLLDTKCDAYLQQTRELVILETIMLQTLGFEITIEHPHTDVVKCTQLVRASKDLAQTSYFMATNSLHLTTFCLQYKPTVIACVCIHLACKWSNWEIPVSTDGKHWWEYVDPTVTLELLDELTHEFLQILEKTPNRLKKIRNWRANQAA	soluble
GVYHREARSGKYKLTYAEAKAVCEFEGGHLATYKQLEAARKIGFHVCAAGWMAKGRVGYPIVKPGPNCGFGKTGIIDYGIRLNRSERWDAYCYNPHAK	soluble
MGLLTILKKMKQKERELRLLMLGLDNAGKTTILKKFNGEDIDTISPTLGFNIKTLEHRGFKLNIWDVGGQKSLRSYWRNYFESTDGLIWVVDSADRQRMQDCQRELQSLLVEERLAGATLLIFANKQDLPGALSSNAIREVLELDSIRSHHWCIQGCSAVTGENLLPGIDWLLDDISSRIFTADLEHHHHHH	soluble
MSVELEEALPVTTAEGMAKKVTKAGGSAALSPSKKRKNSKKKNQPGKYSQLVVETIRRLGERNGSSLAKIYTEAKKVPWFDQQNGRTYLKYSIKALVQNDTLLQVKGTGANGSFKLNRKKLEGGGERRGAPAAATAPAPTAHKAKKAAPGAAGSRRADKKPARGQKPEQRSHKKGAGAKKDKGGKAKKTAAAGGKKVKKAAKPSVPKVPKGRK	soluble
SAAPSDGFKPRERSGGEQAQDWDALPPKRPRLGAGNKIGGRRLIVVLEGASLETVKVGKTYELLNCDKHKSILLKNGRDPGEARPDITHQSLLMLMDSPLNRAGLLQVYIHTQKNVLIEVNPQTRIPRTFDRFCGLMVQLLHKLSVRAADGPQKLLKVIKNPVSDHFPVGCMKVGTSFSIPVVSDVRELVPSSDPIVFVVGAFAHGKVSVEYTEKMVSISNYPLSAALTCAKLTTAFEEVWGVI	soluble
SHLKSKKGQSTSRHKKLMFKTE	soluble
SPILGYWKIKGLVQPTRLLLEYLEEKYEEHLYERDEGDKWRNKKFELGLEFPNLPYYIDGDVKLTQSMAIIRYIADKHNMLGGCPKERAEISMLEGAVLDIRYGVSRIAYSKDFETLKVDFLSKLPEMLKMFEDRLCHKTYLNGDHVTHPDFMLYDALDVVLYMDPMCLDAFPKLVCFKKRIEAIPQIDKYLKSSKYIAWPLQGWQATFGGGDHPPKSDLVPRGSRRASVGSRMHYPGAFTYSPTPVTSGIGIGMSAMGSATRYHTYLPPPYPGEFIVID	soluble

Source: the DeepSol protein solubility set
